# Measured values: US20250205361A1, “TREATMENT […] FOR T[…] […] ACT VIA AN INT[…] TARGET” (priority 2023, published 2025)
# Test system: STAT3
# Experiment: STAT3 RNA quantification (qRT-PCR) in A2058 cells, depot release
# Format: cell-based, human
# Method: Cells were cultured in DMEM (PAN-Biotech GmbH) supplemented with 10% fetal bovine serum (FBS) (PAN-Biotech GmbH) and Pen/Strep (PAN-Biotech GmbH) at 37° C. and 5% CO2. Cells were seeded in a 24-well plate at 30.000 cells/well in 600 μL/well and incubated overnight at 37° C. The next day, 10× concentrated compound-mix samples were prepared in PBS, which contained the compounds as indicated in the experimental set up (FIG. 4A, 4B, 4C, 4D), i.e. PBS, an antisense oligonucleotide (ASO) and/or saponin component at 10× final concentration. Additional 210 μL culture medium was added to the wells, followed by the addition of 90 μL compound-mix/well. […]
# RNA Isolation and Gene Expression Analysis from A431 and A2058 Cells RNA from cells was isolated using TRIzoI™ Reagent (Thermo Scientific) according to the manufacturer's instruction. […] STAT3 expression levels and levels of housekeeping genes were determined using quantitative real-time PCR assays (qRT-PCR) using iTaq™ Universal SYBR@Green Supermix (BioRad) and the Light Cycler 480 II (Roche Diagnostics) with specific DNA primers, listed in Table A3. […]
substance,measurement,setting,value
"Cet-AH-SO1861: cetuximab - SO1861 conjugate, SO1861 to Ab ratio 3.9",STAT3 levels remaining,"STAT3 ASO loading 24 hrs, wash, saponin component directly or after 6 hr or 24 hr resting period",not effective
same,residual STAT3 expression,co-administration of STAT3 ASO plus saponin component 48 hrs,did not enhance STAT3 silencing
